Laboratory results from patent US20180297966A1, “COMPOUNDS, COMPOSITIONS, AND METHODS OF MAKING AND USING THE SAME” (INNOVATIVE ANESTHETICS, LLC, priority 2015, published 2018).

Assay: pH of exemplary salts with respect to concentration (% w/v)
Assay type: physicochemical

| Compound | pH |
| --- | --- |
| Articaine Acesulfamate | 3.50 and 3.79 and 3.95 |
| CCCNC(C)C(=O)Nc1c(C)csc1C(=O)OC.O=C1NS(=O)(=O)c2ccccc21 (centres unmarked) [Articaine saccharinate, Articaine Saccharinate] | 3.95 |

Values joined by “and” are separate entries in the source; they are usually repeats but may differ in a detail not shown here. Identical values can stand only once.
